Results reported in patent US11931424B2, “Combination MCL-1 inhibitors with anti-body drug conjugates” (Gilead Sciences, Inc., priority 2021, dated 2024).
Where a name gives a salt, the structure may show the parent alone.

System: panel of breast cancer cell lines
Experiment: Compound A with targeted agents and chemotherapies, 72-hour in vitro proliferation assays
Assay type: cell-based
Conditions: 72-hour proliferation
[1] = CAL-120 cell line, compound A × partner

## CC1(C)CCC(c2ccc(Cl)cc2)=C(CN2CCN(c3ccc(C(=O)NS(=O)(=O)c4ccc(N[C@H](CCN5CCOCC5)CSc5ccccc5)c(S(=O)(=O)C(F)(F)F)c4)cc3)CC2)C1 [ABT-263]
HCC38, compound A × partner
  HSA volume: 22.24

## CC(=O)O[C@@]12CO[C@@H]1C[C@H](O)[C@@]1(C)C(=O)[C@H](O)C3=C(C)[C@@H](OC(=O)[C@H](O)[C@@H](NC(=O)OC(C)(C)C)c4ccccc4)C[C@@](O)([C@@H](OC(=O)c4ccccc4)[C@H]21)C3(C)C [Docetaxel]
MDA-MB-436 cells, Compound A × partner agent
  Synergy Score: 1.52

## COc1cccc2c1C(=O)c1c(O)c3c(c(O)c1C2=O)C[C@@](O)(C(=O)CO)C[C@@H]3O[C@H]1C[C@H](N)[C@H](O)[C@H](C)O1 [Doxorubicin Hcl]
[1]
  Best CI: 0.64
  Synergy Score: 2.50
HCC2218, compound A × partner
  Best CI: 0.35
  Synergy Score: 8.60
HDQ-P1, compound A × partner
  Best CI: 1.48
